For one compound, IC50 results are on record in ChEMBL document CHEMBL4396888, “Design and Synthesis of Potent, Selective Inhibitors of Protein Arginine Methyltransferase 4 against Acute Myeloid Leukemia” (J Med Chem, 2019).

By UniProt entry, the sequences of proteins in these tests, tags left out. Where a name states a change or a piece, a line headed by the entry shows the natural chain unless it says otherwise.
UniProt O60678: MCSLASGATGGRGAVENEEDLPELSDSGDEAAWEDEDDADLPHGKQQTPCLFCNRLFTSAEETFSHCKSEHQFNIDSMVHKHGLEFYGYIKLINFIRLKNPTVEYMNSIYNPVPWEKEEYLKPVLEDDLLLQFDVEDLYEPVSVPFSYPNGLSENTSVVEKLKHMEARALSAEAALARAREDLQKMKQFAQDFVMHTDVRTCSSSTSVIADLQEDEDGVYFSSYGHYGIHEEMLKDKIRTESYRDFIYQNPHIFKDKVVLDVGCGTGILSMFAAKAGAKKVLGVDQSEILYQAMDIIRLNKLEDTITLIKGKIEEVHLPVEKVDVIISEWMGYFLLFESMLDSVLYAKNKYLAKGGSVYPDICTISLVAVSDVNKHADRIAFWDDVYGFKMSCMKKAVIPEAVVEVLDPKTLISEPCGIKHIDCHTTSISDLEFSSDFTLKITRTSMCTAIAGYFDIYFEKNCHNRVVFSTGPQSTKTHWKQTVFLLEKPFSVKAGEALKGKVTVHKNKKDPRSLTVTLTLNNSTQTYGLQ

In the test the target is Protein arginine N-methyltransferase 3 (Homo sapiens, UniProt O60678). The test can be described thus: Inhibition of PRMT3 (unknown origin) using biotinylated histone H4 (1 to 24 residues) as substrate in presence of [3H]SAM by scintillation proximity assay.

One may read the IC50 as the midpoint of a concentration-inhibition curve. Regarding `CC(C)Oc1ccc(-c2c[nH]cc2CN(C)CCN)cc1`, the IC50 is 4 to 119 nM.
